Assay results: PMC10184128 (Journal of Medicinal Chemistry, 2023)

Amino acid sequences for entries named in this document (tags omitted). Residues count along the entry.
UniProt P43354, whole entry: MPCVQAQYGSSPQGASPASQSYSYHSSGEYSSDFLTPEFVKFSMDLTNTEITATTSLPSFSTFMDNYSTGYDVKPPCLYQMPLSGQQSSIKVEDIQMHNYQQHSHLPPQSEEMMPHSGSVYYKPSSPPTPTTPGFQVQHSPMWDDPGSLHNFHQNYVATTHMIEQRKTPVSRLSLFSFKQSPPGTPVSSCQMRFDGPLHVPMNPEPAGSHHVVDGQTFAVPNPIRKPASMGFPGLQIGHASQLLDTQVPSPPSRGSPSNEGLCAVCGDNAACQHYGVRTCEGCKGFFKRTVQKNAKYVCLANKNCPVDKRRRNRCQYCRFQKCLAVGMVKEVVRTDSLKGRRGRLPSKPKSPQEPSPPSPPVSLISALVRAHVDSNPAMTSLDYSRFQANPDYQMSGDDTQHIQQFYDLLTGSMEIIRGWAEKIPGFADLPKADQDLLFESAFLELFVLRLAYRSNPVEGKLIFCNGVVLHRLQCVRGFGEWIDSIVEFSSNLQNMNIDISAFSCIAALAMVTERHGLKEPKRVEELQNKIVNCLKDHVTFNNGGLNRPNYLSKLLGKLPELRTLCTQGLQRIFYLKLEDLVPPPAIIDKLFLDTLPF
UniProt P43354, 360-595 limits assumed: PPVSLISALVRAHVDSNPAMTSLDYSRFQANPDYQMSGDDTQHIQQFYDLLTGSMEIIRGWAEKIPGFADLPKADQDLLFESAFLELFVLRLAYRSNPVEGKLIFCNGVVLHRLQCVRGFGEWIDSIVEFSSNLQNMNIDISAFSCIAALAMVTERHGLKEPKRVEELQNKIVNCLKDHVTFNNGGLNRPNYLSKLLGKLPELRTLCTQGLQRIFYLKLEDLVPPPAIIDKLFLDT

Columns and labels:
[1] = target: full-length human Nurr1 (NBRE) (Homo sapiens, UniProt P43354); details: all compounds tested at 10 μM, n = 3
[2] = target: human Nurr1 (Homo sapiens, UniProt P43354); details: for max. activation (Nurr1): Gal4 hybrid reporter gene assay, mean ± S.E.M., n ≥ 3; for activation of Gal4-Nurr1 (hybrid assay): all compounds tested at 10 μM, n = 3
[3] = tested on: constitutively active nuclear receptors; details: 10 μM
[4] = tested on: COS-7 cells; details: 0.1-10 μM, 24 h
[5] = tested on: vesicular amino acid transporter 2 (VMAT2)
[6] = tested on: tyrosine hydroxylase (TH)
[7] = tested on: Gal4-VP16

| activation of full-length Nurr1 (NBRE) [1] | max. activation (Nurr1) [2] | activation of Gal4-Nurr1 (hybrid assay) [2] | SMILES | activity on constitutively active nuclear receptors outside the NR4A family [3] | cytotoxic effects [4] | VMAT2 mRNA expression [5] | TH mRNA expression [6] | effect on activity of ligand-independent transcriptional inducer Gal4-VP16 [7] |
| --- | --- | --- | --- | --- | --- | --- | --- | --- |
| activated | 0.079±0.001 μM (2.6±0.1-fold) | activated | [2H]C([2H])([2H])Oc1cccc(-c2ccc(NC(=O)C3=C(C(=O)O)CCC3)c(F)c2)c1 [compound 2] |  |  |  |  |  |
|  |  |  | C#CCOc1cccc(-c2ccc(NC(=O)C3=C(C(=O)O)CCC3)c(F)c2)c1 [compound 29, 2-[(3-Fluoro-3′-prop-2-yn-1-yloxy[1,1′-biphenyl]-4-yl)carbamoyl]cyclopent-1-ene-1-carboxylic acid] | selective | no cytotoxic effects | induced mRNA expression | induced mRNA expression |  |
| activated | 0.4±0.2 μM (3.1±0.4-fold) | activated | COc1cccc(-c2ccc(NC(=O)C3=C(C(=O)O)CCC3)c(F)c2)c1 [compound 1, vidofludimus] | selective |  |  |  | did not affect the activity |
